Test system: CA1 hippocampal neurones
Experiment: Gerbil model of brain ischemia, intact CA1 hippocampal neurones
Assay type: in vivo, Mongolian gerbils
Protocol: Other experiments were carried out using a Gerbil model of brain ischemia. To assess neuroprotection, confocal microscopy was carried out on the brain after administration of the stabilised peptide or the IGF-I receptor binding domain.
In the gerbil brain, bilateral ligation of the common carotid arteries invariably produces specific hippocampal lesions: in the CA1 region, pyramidal neurones start to die 3-4 days after ischemia.
Male Mongolian gerbils weighing 50-60 g were used. The ischemic insult was performed by 5 min. ligation of the common carotid arteries under halotane in N2O:O2 (70:30) anaesthesia in strictly controlled normothermic conditions as previously described (Domańiska-Janik et al., 2004). The cerebral blood flow was continuously monitored by laser Doppler flowmetry (Muro, Inc.). A group of animals received stabilised peptide or IGF-1 (1 μg/μl in PBS) by injection at a dose of 25 μg directly to the left carotid artery immediately upon the reperfusion. Sham operated animals were injected with the same dose of the peptide.
Usually, 10-15 minutes after the procedure, treated animals were standing up on their legs and behaving as untreated ones. The animals were allowed a recovery period of one week, then were perfused with ice-cold 4% paraformaldehyde in PBS under pentobarbital anaesthesia. The histological evaluation was performed on paraffin-embedded and fixed, 10 mm-thick sections stained by hematoxylline/eosine. The extent of cell damage in the CA1 hippocampal region was quantified, under a Zeiss Axioscop 2, as the mean number of the persisted, intact neurons in the coronal sections. At least three defined 300 μm fields of the CA1 region were captured using a MC 10095 camera (Carl Zeiss Jena GmbH) and counted in a computer-assisted image analysis system (KS 300, Carl Zeiss Jena GmbH).

With “stabilised peptide: SEQ ID NO: 15 with D-Arginine at positions 14 and 15, N-terminus attached to PEG (Jeffamine) via succinic acid bridge, amidated at C-terminus (YQPPSTNKNTKSQRRKGSTFEEHK; D-Arg 14,15; N-terminal PEG via succinate; C-amide)” the “neurones on contralateral side as % of non-operated control value” (25 μg into left carotid artery, contralateral side) was 54%, the “number of intact neurones in CA1 region, contralateral side” value (25 μg into left carotid artery, contralateral side, mean±SD) was 65.8±30 neurones per 300 μm length and the “neurones on injected side as % of non-operated control value” (25 μg into left carotid artery, injected side) was 74.5%. The “number of intact neurones in CA1 region, injected side” value (single bolus 25 μg into left carotid artery immediately after reperfusion, one week, mean±SD) was 83.2±25 neurones per 300 μm length.

Reference: patent US20060211606A1, “Peptides” (priority 2005, published 2006)
